Calls of active or inactive are those of the source. The rule behind the calls is not given here.

The species named for one experiment is Mus musculus. In words: Agonist activity was evaluated using mouse vas deferens assay in presence of delta-selective antagonist naltrindole (NTI); NR:Not reversed.
Another experiment is filed under the species Cavia porcellus. The experiment in a line: Agonistic activity in electrically stimulated guinea pig ileum preparation (GPI) in presence of mu-selective antagonist CTAP; NR:Not reversed.

Take `C[C@@H](NC(=O)[C@@H](N)Cc1ccc(O)cc1)C(=O)NCC(=O)N(C)[C@@H](Cc1ccccc1)C(=O)NCCO`: the Ke entry in the experiment listed under Mus musculus was “Not reversed”.
Consider `CC1(C)OC23CCC4(CC2C1(C)C)C1Cc2ccc(O)c5c2C4(CCN1CC1CC1)C3O5` (centres undefined), for which the Ke entry in the experiment listed under Cavia porcellus was “inactive”.
With `CO[C@@]12CC[C@@]3(C[C@@H]1[C@](C)(O)C(C)(C)C)[C@H]1Cc4ccc(O)c5c4[C@@]3(CCN1CC1CC1)[C@H]2O5`, the Ke result in the experiment filed under Mus musculus and in the experiment listed under Cavia porcellus was “inactive” each time.

These data come from ChEMBL document CHEMBL1132136, “Ring constrained analogues of the orvinols: the furanomorphides” (1999).
